Experimental findings from patent US20060040951A1, “Use of 5-ht2 receptor antagonists for the treatment of sleep disorders” (Merck Patent GmbH, priority 2002, published 2006) are described below.

The experiment concerns rats. Nature of the experiment: Brain-wave (EEG) recording of rats over 6 hours during the dark phase. The class given is in vivo, rat. Conditions: 6 h dark phase. Here is the method:
The comparative substance triazolam, by contrast, extends non-REM sleep by 2 min/h at a dose of 0.1 mg/kg and by 6.5 min/h at a dose of 0.4 mg/kg, which corresponds to the maximum effect in triazolam.
Under the same conditions, zolpidem extends non-REM sleep by 5 min/h at 5 mg/kg and by 7 min/h at 10 mg/kg.
However, there is an important difference between the compound according to the invention and the reference sleeping drugs with respect to their action on REM sleep. The standard sleeping drugs shorten this stage of sleep: triazolam (0.1-1.6 mg/kg) by 0.3 to 2.1 min/h, zolpidem (5-10 mg/kg) and zopiclon (2.5-5 mg/kg) by 0.3 to 1.6 min/h (the values relate to recording on rats for 6 hours during the dark phase). […] (3-Cyano-1H-indol-7-yl)-[4-(4-fluorophenethyl)piperazin-1-yl]-methanone, by contrast, extends REM sleep by an average of 0.8 min/h and with a maximum of 2 min/h.

Turning to `CN1CCN(C(=O)OC2c3nccnc3C(=O)N2c2ccc(Cl)cn2)CC1` (centres unmarked) [Zoplicon, zopiclon], the “what the change in REM sleep results from” value was “reduction in the number of these phases”. For the same compound, the “extension of non-REM sleep (compared with zolpidem)” value (2.5-5 mg/kg) is reported as “comparable effect”.
As for `Cc1ccc(-c2nc3ccc(C)cn3c2CC(=O)N(C)C)cc1` [zolpidem], the “what the change in REM sleep results from” value was “reduction in the number of these phases”. Moreover, the “extension of non-REM sleep” value (dose 5 mg/kg) came to 5 min/h. Also, the “extension of non-REM sleep” value (dose 10 mg/kg) is on record as 7 min/h.
